# Laboratory results as given in PubChem BioAssay AID1259249 (Broad Institute, 2017).
# This is a selection; strong and weak results do not stand in their true shares. Calls of active or inactive are those of the source.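 The calls were made as follows: active = mean growth activity at or below -80% and every replicate also at or below -80%; inconclusive = mean at or below -80% but some replicate above -80%; inactive = mean growth activity above -80%.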
# Test: C. difficile growth inhibitors, primary screen, HTS (AID 1259249);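 also: 0% = DMSO wells and -100% = levofloxacin 16 µg/mL wells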
# Settings: Clostridium difficile clinical isolate growth, OD600, 24 h; stronger effect = lower value; screened at 16 µg/mL (by protocol)
row,Structure (SMILES),"growth activity, negative = inhibition"
1,COc1ccc(CN2/C(=N\P(=O)(Oc3ccccc3)Oc3ccccc3)Cc3ccccc3C2C2CC2)cc1 (stereo unspecified),inactive: 9.29%
